ClpP mod: qHTS Assay for Activators of ClpP. ATP-dependent Clp protease proteolytic subunit (Bacillus subtilis (strain 168)), P80244. hit rate 1.9% among 340,000. Potency, µM (top dose mostly 57.5 µM), without a hit: at the highest dose activity change, negative = active. purified B. subtilis ClpP, FRET peptide cleavage, 20 min; active = well fitted falling curve with a large enough effect; inconclusive = small, poorly fitted or top-dose-only effect; inactive = no such curve, though single readings can be large or run the other way; note: potency is the fitted concentration of half-maximal effect; the source files actives as falling curves though it sought activators and does not explain the sign; nearly all actives have a fitted effect of over 65% in size
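FRET quenching reversal measured ClpP activation: 10 microg/mL B. subtilis ClpP at pH 8 with the FRET-FV decapeptide, read at 430 nm after 320 nm excitation. The 20-min minus 0-min signal was scaled between DMSO/no-enzyme wells and ADEP (5.8 microM final).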
Nrf2 ARE act: activators of Nrf2 (ARE) signaling | AREc32 ARE-luciferase reporter (MCF7-derived line), luminescence, 24 h | Potency, µM (titrated, usually from 46.1 µM), without a hit: at the highest dose activation, usual class: activators | hit rate 0.31% among 410,000 | AID 624171; note: potency is the fitted concentration of half-maximal effect; % of control where 0% means no effect; nearly all actives have a fitted effect of over 65% in size
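For detection, Steady-Glo was added and plates sat 30 min at RT; before that, AREc32_Fluc cells grown overnight in OPTI-MEM/5% FBS had been treated with 23 nL compound for 24 hr at 37 deg C.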
Nrf2 block: inhibitors of Nrf2 signaling | A549 ARE-Fluc reporter, luciferase luminescence, 18-24 h | Potency, µM (titrated, usually from 46 µM), inactives show top-dose activity change, negative = inhibition, actives largely listed as inhibitors | hit rate 2.1% among 360,000 | AID 504444; note: potency is the fitted concentration of half-maximal effect; % is set by controls: 0 for no effect and ±100 for the full control effect; nearly all actives have a fitted effect of over 60% in size
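Nrf2 function is reported as luminescence of an ARE-controlled luciferase in A549 cells. Compounds were tested at several concentrations, and a CellTiter-Fluor read on the same wells flagged cytotoxicity.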
A549 tox: A549 cytotoxicity, counter-screen for Nrf2 inhibitors | A549 ARE-Fluc cells, CellTiter-Fluor viability, 18-24 h | hit rate 0.16% among 390,000 | Potency, µM (doses to about 46 µM), without a hit: top-dose activity change, negative = cytotoxicity, usual class: inhibitors; note: potency is the fitted concentration of half-maximal effect; % is set by controls: 0 for no effect and ±100 for the full control effect
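Cytotoxicity counterscreen: CellTiter-Fluor fluorescence was measured in A549 ARE_Fluc cells after 18-24 h of compound exposure in a concentration series. The subsequent BugLite luminescent read reports ARE-luciferase activity.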
miR-21 reporter: raises the signal of a miR-21 reporter | HeLa miR-21 FLuc reporter, luciferase, 48 h | Potency, µM (doses to about 38.3 µM), for the others: at the highest dose reporter change, positive = more light | 340,000 tested, under 10 active | AID 2288; active = well fitted rising curve with a large enough effect; inconclusive = small, poorly fitted or top-dose-only effect; inactive = no such curve, though single readings can be large or run the other way;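 also: % of control where 0% means no effect; miR-21 action dims this reporter so a rising signal means less miR-21 action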
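Luminescence from a firefly luciferase reporter carrying a miR-21 binding site downstream, stably expressed under a CMV promoter in HeLa cells that make miR-21 endogenously, reports miRNA modulation after 48 h compound exposure up to approximately 40uM final.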
p53 reactivator: restores transcriptional activity of mutant p53; H1299 p53-A138V BP100-luciferase reporter, luminescence, 24 h; hit rate 0.063% among 320,000; Potency, µM (top dose mostly 92.2 µM), for inactives: at the top dose activity change, positive = activation, most hits filed as activators; note: potency is the fitted concentration of half-maximal effect; % of control where 0% means no effect; nearly all actives have a fitted effect of over 45% in size
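p53-null H1299 cells stably carrying temperature-sensitive p53-A138V and a BP100-luciferase reporter were pinned with compounds (4-point, 1:5 series) and held 24 hrs at 37 deg C. Luminescence was read 10 min after detection reagent.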
* = called active by the depositor; ? = inconclusive; / = no result. Most compounds without a hit are left out; they make up all but 3.7% or so of the library. Unless noted, calls come from the whole dose curve; as a rule, active = well fitted curve in the direction sought with a large enough effect; inconclusive = small, poorly fitted or top-dose-only effect, or another doubt; inactive = no such curve, though single readings can be large; an effect the other way counts as inactive or inconclusive.

By UniProt entry, the sequences of proteins in these tests, tags left out.
ATP-dependent Clp protease proteolytic subunit (Bacillus subtilis (strain 168)), P80244, UniProt P80244, whole entry, looked up: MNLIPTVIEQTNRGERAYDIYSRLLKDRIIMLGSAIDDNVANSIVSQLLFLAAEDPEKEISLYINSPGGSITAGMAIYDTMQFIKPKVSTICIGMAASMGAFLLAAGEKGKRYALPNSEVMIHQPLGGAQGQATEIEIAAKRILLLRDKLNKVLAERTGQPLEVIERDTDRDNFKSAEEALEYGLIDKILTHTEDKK

| No. | SMILES | ClpP mod | p53 reactivator | miR-21 reporter | Nrf2 ARE act | A549 tox | Nrf2 block |
| --- | --- | --- | --- | --- | --- | --- | --- |
| 1 | Cc1ccc(-c2ccc(/C=N\NC(=O)c3cc4c(ccc5ccccc54)o3)o2)cc1[N+](=O)[O-] | -4.0% | 9.0% | -1.4% | -0.1% | ? | 23.1µM* |
| 2 | Cc1ccc([N+](=O)[O-])cc1-c1ccc(/C=N/NC(=O)c2cc3c(ccc4ccccc43)o2)o1 | -11.0% | 2.2% | 1.9% | -0.3% | 0.7% | 2.4% |
| 3 | O=C(C[n+]1ccc2ccccc2c1)c1ccc(F)cc1 | 68.4% | / | / | / | / | / |
| 4 | COc1cccc(C=Nc2ccccc2C(=O)Nc2nccs2)c1OC | 31.6µM* | 6.3% | -20.8% | 0.3% | -1.9% | / |
| 5 | O=C(Nc1nccs1)c1ccccc1N=Cc1ccccc1 | 28.2µM* | 7.7% | -22.3% | 0.4% | -3.5% | 20.8% |
| 6 | O=C(Nc1ccccc1)c1ccccc1N=Cc1ccccc1O | 35.5µM* | ? | -54.3% | -0.7% | -1.3% | 20.0% |
| 7 | COc1cc2ccccc2cc1C(=O)Nc1nccs1 | -5.7% | 13.7% | -34.7% | 19.1% | 6.5% | ? |
| 8 | COc1cccc(Cn2c(=O)n(-c3ccc(Br)cc3F)c(=O)c3sc4ccccc4c32)c1 | 4.0% | / | -6.8% | -0.8% | -4.5% | -9.5% |
| 9 | COc1cc2nc(N3CCCN(C)CC3)nc(N3CCN(C)CC3)c2cc1OC | 3.8% | / | / | / | / | / |
| 10 | O=C(CCCn1c(=O)c2sccc2n(Cc2c(F)cccc2Cl)c1=O)NCc1ccccc1 | -0.4% | / | -5.3% | 0.3% | 5.2% | -2.2% |
| 11 | CCOC(=O)Cc1ccc(NC(=O)Nc2nnc(N3CCCCC3C)s2)cc1 (stereo not given) | 1.1% | / | ? | 0.0% | ? | 20.6µM* |
| 12 | CCOC(=O)Cc1nnc(NC(=O)Nc2ccccc2)s1 | -1.2% | 0.4% | -12.3% | 7.4% | -3.5% | 12.7% |
| 13 | c1ccc(N2CC3CCc4ccccc4C3=N2)cc1 (stereo not given) | / | 44.7µM* | -53.4% | ? | 22.6% | ? |
| 14 | CCN(CC(=O)Nc1ccc(NC(C)=O)cc1)C(=O)c1c(C)nn(Cc2ccc(C)cc2)c1Cl | -0.5% | / | / | 0.2% | -2.4% | -9.9% |
| 15 | O=C(NCC(c1cccs1)N1CCOCC1)c1ccccc1NS(=O)(=O)c1cccc([N+](=O)[O-])c1 (stereo not given) | / | -0.4% | 0.7% | 3.1% | ? | 20.6µM* |
| 16 | O=C(N/N=C/C1CC=CCC1)c1ccc(Cl)cc1O (stereo not given) | -13.6% | 31.6µM* | -14.3% | 0.5% | 0.8% | ? |
| 17 | O=C(N/N=C/C1CC=CCC1)c1ccccc1O (stereo not given) | -10.3% | 13.1% | -20.7% | 0.2% | -13.4% | -14.9% |
| 18 | CS(=O)(=O)c1ccccc1NC(=O)COc1ccccc1C(=O)Nc1ccccc1 | -3.5% | / | / | / | / | / |
| 19 | COc1ccc(-c2cc(=O)oc3c4c(ccc23)OCN(Cc2cccc(OC)c2)C4)cc1 | 31.6µM* | / | -1.6% | 7.1% | -4.8% | 18.6% |
| 20 | O=C(NCC(=O)N1CCN(S(=O)(=O)c2ccccc2F)CC1)c1ccc2c(c1)OCO2 | / | -4.8% | / | 1.3% | 3.6% | 3.4% |

Next part, starting with the last 4 of the part before.
| No. | SMILES | ClpP mod | p53 reactivator | miR-21 reporter | Nrf2 ARE act | A549 tox | Nrf2 block |
| --- | --- | --- | --- | --- | --- | --- | --- |
| 17 | O=C(N/N=C/C1CC=CCC1)c1ccccc1O (stereo not given) | -10.3% | 13.1% | -20.7% | 0.2% | -13.4% | -14.9% |
| 18 | CS(=O)(=O)c1ccccc1NC(=O)COc1ccccc1C(=O)Nc1ccccc1 | -3.5% | / | / | / | / | / |
| 19 | COc1ccc(-c2cc(=O)oc3c4c(ccc23)OCN(Cc2cccc(OC)c2)C4)cc1 | 31.6µM* | / | -1.6% | 7.1% | -4.8% | 18.6% |
| 20 | O=C(NCC(=O)N1CCN(S(=O)(=O)c2ccccc2F)CC1)c1ccc2c(c1)OCO2 | / | -4.8% | / | 1.3% | 3.6% | 3.4% |
| 21 | COc1ccc(S(=O)(=O)N2CCN(C(=O)CNC(=O)c3ccc4c(c3)OCO4)CC2)cc1 | 28.2µM* | -9.0% | / | -0.2% | -8.8% | 16.5% |
| 22 | Cc1ccc(S(=O)(=O)N2CCN(C(=O)CNC(=O)c3ccc(Cl)cc3)CC2)cc1 | -0.9% | -11.7% | / | 0.6% | 0.1% | 20.6µM* |
| 23 | Cc1c(C(=O)Nc2cccc(C(F)(F)F)c2)oc2ccc(S(=O)(=O)N(C)C3CCCCC3)cc12 | -7.2% | / | 18.5% | 0.2% | 2.1% | / |
| 24 | C=C(c1ccccc1O)n1ccnc1 | 12.6µM* | 3.7% | 2.1% | -1.1% | -0.5% | -9.0% |
| 25 | Cc1ccc(NC(=O)Cn2cc3c(n2)CCCCC3)cc1 | 0.5% | / | -1.1% | -1.0% | 9.0% | 3.6% |
| 26 | O=C(Nc1ccccc1F)c1cnn2c1NC(=C1CC1)C=C2C(F)F | -0.9% | / | / | / | / | / |
| 27 | CCC(=O)OC1(C(=O)CCl)[C@@H](C)C[C@H]2[C@@H]3CCC4=CC(=O)C=C[C@]4(C)[C@@]3(F)[C@@H](O)C[C@@]21C (stereo not given in full) | -2.2% | 0.1% | / | -0.9% | -17.3% | ? |
| 28 | CC12C=CC(=O)C=C1C(F)CC1C3CCC(O)(C(=O)CO)C3(C)CC(O)C12F (stereo not given) | -1.5% | / | / | -0.6% | -2.5% | 0.0052µM* |
| 29 | C[C@@H]1C[C@H]2[C@@H]3C[C@H](F)C4=CC(=O)C=C[C@]4(C)[C@@]3(F)[C@@H](O)C[C@]2(C)[C@@]1(O)C(=O)CO | 1.3% | / | -26.8% | 0.3% | -5.6% | ? |
| 30 | C[C@@H]1C[C@H]2[C@@H]3CCC4=CC(=O)C=C[C@]4(C)[C@@]3(F)[C@@H](O)C[C@]2(C)[C@@]1(O)C(=O)COP(=O)(O)O | -0.4% | 6.5% | -39.7% | -1.1% | -2.3% | 0.0231µM* |
| 31 | CC(=O)OCC(=O)[C@@]1(O)CC[C@H]2[C@@H]3CCC4=CC(=O)C=C[C@]4(C)[C@@]3(F)[C@@H](O)C[C@@]21C | 2.0% | 4.4% | / | -0.9% | -5.3% | 0.0291µM* |
| 32 | CC(=O)OCC(=O)C1(O)CCC2C3CC(C)C4=CC(=O)C=CC4(C)C3(F)C(O)CC21C (stereo not given) | / | / | / | 1.2% | 3.6% | 0.058µM* |
| 33 | COc1ccccc1N1CCN(C(=O)c2cnn(-c3cccc(Cl)c3)c2C2CCN(C(=O)OC(C)(C)C)CC2)CC1 | -2.4% | / | 28.4% | 0.7% | -20.6% | ? |
| 34 | CCCC(=O)Oc1ccc2[nH]c(C(=O)c3cc4ccccc4[nH]3)cc2c1 | -6.6% | / | / | / | / | / |
| 35 | CCCNC(=O)c1cc(C2CCCCN2C(=O)c2cccs2)on1 (stereo not given) | -2.8% | / | / | 0.4% | / | / |
| 36 | CC(=O)OCC(=O)C1(O)CCC2C3CC(C)C4=CC(=O)C=CC4(C)C3=CCC21C (stereo not given) | / | / | / | 2.5% | 3.0% | 2.06µM* |
| 37 | CC(=O)OCC(=O)C1(O)CCC2C3CC(F)C4=CC(=O)CCC4(C)C3C(=O)CC21C (stereo not given) | / | / | / | -0.3% | -3.4% | -27.4% |
| 38 | CCC(=O)O[C@]1(C(=O)CCl)[C@@H](C)C[C@H]2[C@@H]3CCC4=CC(=O)C=C[C@]4(C)[C@@]3(F)[C@@H](O)C[C@@]21C | 0.6% | 4.8% | -19.9% | -0.5% | -7.2% | ? |
| 39 | CC1(c2ccccc2)O[C@@H]2C[C@H]3[C@@H]4CCC5=CC(=O)C=C[C@]5(C)[C@@]4(F)[C@@H](O)C[C@]3(C)[C@]2(C(=O)CO)O1 (stereo not given in full) | / | -1.4% | -3.6% | 3.1% | -5.4% | 0.0259µM* |

Screening results as filed in PubChem.
